Molecular target: bafilomycin-sensitive ATPase in chicken osteoclasts (Gallus gallus, UniProt A0A8V0Z1D5+Q9I8C8)
Experiment: Inhibition of bafilomycin-sensitive ATPase in chicken osteoclasts
Conditions: read-out: IC50 (nM) ATPase assay, chicken osteoclast membranes
Experimental: Vesicles were prepared from medullar bone obtained from tibiae and femurs of egg-laying hens which were calcium-starved for at least 15 days. Briefly, bone fragments were scraped with a 24 scalpel blade, suspended in 40 ml of isolation medium (0.2 M sucrose, 50 mM KCl, 10 mM Hepes, 1 mM EGTA, 2 mM dithiotheitrol, pH 7.4) and filtered through a 100 μm pore size nylon mesh. The whole procedure was performed at 4° C. After homogenisation in a potter (20 strokes) in 40 ml of isolation medium an initial centrifugation (6,500×gmax×20 min) was performed to remove mitochondria and lysosomes. The supernatant was centrifuged at 100,000×gmax for 1 hr and the pellet was collected in 1 ml of isolation medium, divided into 200 μl aliquots, immediately frozen in liquid nitrogen and stored at −80° C. The protein content was determined using a Biorad colourimetric kit according to Bradford [M. Bradford, Anal. Biochem., 72, 248 (1976)]. […]
Inhibition of bafilomycin-sensitive ATPase activity was assessed in purified membrane vesicles by measuring the release of inorganic phosphate (Pi) during 30 min of incubation at 37° C. in a 96-well plate either in the presence or in the absence of bafilomycin A1. […] Absorbance at 650 nm was measured after 2 min using a microplate reader. Results are expressed as μmol (Pi)×mg protein^−1×hour^−1 and, for each experiment, represent the mean±sem of triplicates.

Amino acid sequences for entries named in this document (tags omitted). Residues count along the entry.
UniProt A0A8V0Z1D5, 1-154: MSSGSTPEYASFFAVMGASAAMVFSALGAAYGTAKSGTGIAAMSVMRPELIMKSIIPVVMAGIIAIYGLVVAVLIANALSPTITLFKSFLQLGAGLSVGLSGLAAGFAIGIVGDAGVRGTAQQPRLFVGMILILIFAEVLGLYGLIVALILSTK
UniProt Q9I8C8, 1-837: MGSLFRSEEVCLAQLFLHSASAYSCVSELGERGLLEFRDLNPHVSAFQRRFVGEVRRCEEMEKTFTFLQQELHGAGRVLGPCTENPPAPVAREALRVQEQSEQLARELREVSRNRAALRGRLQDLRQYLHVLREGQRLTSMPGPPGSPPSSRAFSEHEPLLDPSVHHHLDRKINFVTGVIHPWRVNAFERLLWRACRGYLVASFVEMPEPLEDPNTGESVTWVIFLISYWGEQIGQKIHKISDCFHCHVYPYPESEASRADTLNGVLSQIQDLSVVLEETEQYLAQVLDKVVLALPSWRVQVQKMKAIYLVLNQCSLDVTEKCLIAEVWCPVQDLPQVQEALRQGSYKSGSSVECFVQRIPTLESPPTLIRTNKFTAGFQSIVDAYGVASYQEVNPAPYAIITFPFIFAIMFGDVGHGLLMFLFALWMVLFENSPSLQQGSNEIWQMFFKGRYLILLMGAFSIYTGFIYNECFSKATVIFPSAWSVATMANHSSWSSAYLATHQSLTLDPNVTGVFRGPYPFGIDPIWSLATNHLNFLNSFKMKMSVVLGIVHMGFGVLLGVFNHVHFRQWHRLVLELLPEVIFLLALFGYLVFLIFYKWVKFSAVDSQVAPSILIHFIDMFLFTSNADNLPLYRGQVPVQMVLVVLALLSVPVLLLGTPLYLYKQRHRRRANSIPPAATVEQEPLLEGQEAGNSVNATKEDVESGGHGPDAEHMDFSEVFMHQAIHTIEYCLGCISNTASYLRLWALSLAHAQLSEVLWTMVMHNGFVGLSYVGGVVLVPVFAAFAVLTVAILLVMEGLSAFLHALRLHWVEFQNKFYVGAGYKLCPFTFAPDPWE
UniProt Q5ZHL0, whole entry partner: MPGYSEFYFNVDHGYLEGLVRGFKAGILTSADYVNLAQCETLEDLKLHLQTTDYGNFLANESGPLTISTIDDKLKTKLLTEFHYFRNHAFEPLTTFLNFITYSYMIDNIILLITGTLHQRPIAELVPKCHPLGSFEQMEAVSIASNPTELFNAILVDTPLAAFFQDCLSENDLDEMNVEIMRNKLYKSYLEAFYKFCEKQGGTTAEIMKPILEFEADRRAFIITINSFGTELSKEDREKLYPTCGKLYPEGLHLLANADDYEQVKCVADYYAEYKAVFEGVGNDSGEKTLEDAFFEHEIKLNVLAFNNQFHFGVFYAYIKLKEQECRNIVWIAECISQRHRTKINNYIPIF
UniProt Q90647, whole entry partner: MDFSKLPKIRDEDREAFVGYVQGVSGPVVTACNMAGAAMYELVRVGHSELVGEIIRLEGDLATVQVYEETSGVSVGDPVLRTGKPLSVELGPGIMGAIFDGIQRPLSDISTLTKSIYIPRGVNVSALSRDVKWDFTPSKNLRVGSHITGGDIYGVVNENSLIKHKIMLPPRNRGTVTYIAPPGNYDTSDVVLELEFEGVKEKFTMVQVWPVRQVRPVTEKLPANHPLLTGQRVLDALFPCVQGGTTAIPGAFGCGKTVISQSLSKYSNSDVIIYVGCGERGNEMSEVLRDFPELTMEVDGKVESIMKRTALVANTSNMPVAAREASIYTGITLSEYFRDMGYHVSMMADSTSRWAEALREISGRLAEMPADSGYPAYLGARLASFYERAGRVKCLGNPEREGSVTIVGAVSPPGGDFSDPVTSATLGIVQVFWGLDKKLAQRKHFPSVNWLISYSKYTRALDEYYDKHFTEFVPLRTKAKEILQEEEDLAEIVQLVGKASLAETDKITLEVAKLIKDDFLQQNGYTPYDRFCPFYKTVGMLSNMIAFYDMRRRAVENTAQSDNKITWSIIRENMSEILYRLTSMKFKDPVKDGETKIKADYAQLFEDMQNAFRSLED
UniProt P49712, whole entry partner: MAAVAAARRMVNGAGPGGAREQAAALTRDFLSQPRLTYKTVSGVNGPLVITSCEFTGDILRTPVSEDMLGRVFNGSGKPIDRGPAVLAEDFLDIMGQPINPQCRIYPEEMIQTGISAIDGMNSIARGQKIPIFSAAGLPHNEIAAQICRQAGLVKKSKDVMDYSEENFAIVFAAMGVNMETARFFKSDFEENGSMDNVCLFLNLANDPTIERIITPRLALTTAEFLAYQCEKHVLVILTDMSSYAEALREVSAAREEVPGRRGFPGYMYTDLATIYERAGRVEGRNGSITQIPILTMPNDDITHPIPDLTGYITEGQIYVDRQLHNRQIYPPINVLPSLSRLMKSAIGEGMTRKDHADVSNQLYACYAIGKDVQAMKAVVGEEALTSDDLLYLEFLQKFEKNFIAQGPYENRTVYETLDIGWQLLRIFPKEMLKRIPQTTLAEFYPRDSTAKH

For `CO/C(=C\C=C\c1cc2cc(Cl)c(Cl)cc2[nH]1)C(=O)NC1C[C@@H](C)N(CCO)[C@@H](C)C1` (stereo partly shown), the IC50 was 24 nM.

Reference: patent US6903117B2, “Indole derivatives for the treatment of osteoporosis” (Nikem Research S.R.L., priority 1996, dated 2005)
